We go through two compounds from PubChem BioAssay AID624371 (The Scripps Research Institute Molecular Screening Center, 2012).

The entries are a selection whose mix differs from that of the whole data set. The source made the active and inactive calls.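 Rule for the calls: active = mean inhibition above the low-control mean inhibition plus three low-control SD (cut at about 11% in these data); inactive = the rest.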

This assay is described as follows: BLA reporter readout interference – cell-based, CHO-K1 CMV-bla, CCF4 FRET, fluorescence, artefact control for NOD2-RIPK2 interaction inhibitor project, confirmation (AID 624371).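 Note: 0% = DMSO only wells and 100% = clavulanate high control wells.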 The conditions noted are these: CCF4 FRET ratio, counterscreen, at 4.98 µM, active compounds read high. A general note: A counterscreen serves to expose hits that act by an unwanted route or on another target.
In the case of `C[N+]1=C2C=CC=CC=C2SC12C([N+](=O)[O-])=CC([N+](=O)[O-])=C[C-]2[N+](=O)[O-]` (configuration not stated), the inhibition (commonly the relative decrease from the control value, in per cent) is inactive: -2.08%.

Turning to `CN(C)C(=O)c1cc([N+](=O)[O-])cc2c1-c1c(cc([N+](=O)[O-])cc1[N+](=O)[O-])C2=O`, the inhibition is active: 15.7%.
